# Binding of CDR-mutated scFvs to a peptide of the spike HR2 region

Target: peptide PDVDLGDISGINAS, taken from heptad repeat 2 (HR2) of SARS-CoV-2 spike.

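The parent was found by panning a naive human phage display library on the peptide. Designed CDR sequences, proposed from the first random library and measured here. Their group label is 14L_GP_HC (GP: Gaussian process model; HC: hill climbing; a sequence that several methods proposed may carry one label only). The scFvs were displayed on barcoded MATa yeast, the peptide on MATalpha yeast. Mating (16 h, 30 °C) was followed by selection of diploids and sequencing of their barcodes. Each replicate has its own calibration line, from reference interactions of the BCL2 family. The assay was run in six technical replicates.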

Parent: Ab-14, a human scFv built as VH, a (GGGGS)3 linker, VL. Only the CDRs of the light chain vary.
VH: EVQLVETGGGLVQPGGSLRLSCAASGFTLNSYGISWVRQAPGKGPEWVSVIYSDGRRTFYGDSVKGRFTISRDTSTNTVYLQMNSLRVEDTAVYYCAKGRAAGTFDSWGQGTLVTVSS
VL: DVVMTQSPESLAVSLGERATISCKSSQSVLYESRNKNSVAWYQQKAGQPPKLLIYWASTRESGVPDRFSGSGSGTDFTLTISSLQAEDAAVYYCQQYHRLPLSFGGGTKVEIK

Positions count from residue 1 of the parent VL; S25F puts F in place of S.
The read-out is the apparent dissociation constant on a log10 scale (nM): the lower, the stronger.
An entry "n.d." has no value in the source: the pair was not observed among the diploids in that replicate. This suggests poor binding but is not conclusive.
As a blank, each scFv also met three strains without target: over all light chain designs, 4% of these pairings were detected, typically at 2.64 and seldom below 1.59. For each scFv, signals with the empty controls are counted beside the result, with their mean in brackets.
The authors averaged sequences with at least three values out of six and counted those with two or fewer as poor binders.
A sequence measured in both rounds can read differently, since the two assays cover different ranges.
The parent sequence was in this pool as ten entries: three were never detected, three once, and four in most replicates, with averages from 0.34 to 2.37.

| # | changes | log10 Kd (nM) by replicate | control signals |
|---|---|---|---|
| 1 | S25F S38G W56N | 0.42 / 0.35 / 0.32 / -0.09 / 0.29 / 0.56 | 0/18 |
| 2 | S28L L30D Y31F W56D | 0.88 / 0.77 / 0.76 / 0.70 / 0.65 / 0.85 | 1/18 (2.78) |
| 3 | Q27I V29W N35A W56E | 0.94 / 0.49 / 0.36 / 0.42 / 0.74 / 0.77 | 1/18 (1.86) |
| 4 | S25I W56M R99V | 0.20 / 0.08 / 0.11 / -0.03 / 0.24 / 0.21 | 1/18 (2.36) |
| 5 | S25F S26E S28G N37G W56G T59V | -0.08 / -0.13 / -0.16 / -0.35 / -0.33 / -0.09 | 0/18 |
| 6 | K24H S25Q Q27F W56N A57G S62V | 0.53 / 0.35 / 0.04 / 0.46 / 0.20 / 0.54 | 1/18 (3.53) |
| 7 | S25L S26M W56E S62D | 0.19 / 0.39 / 0.03 / 0.06 / 0.28 / 0.36 | 2/18 (4.00) |
| 8 | K24H S25F Q27P W56N S103Q | -0.49 / -0.15 / -0.77 / -0.53 / -0.57 / -0.05 | 2/18 (1.64) |
| 9 | Q27I V29Y W56A S62V | 0.10 / 0.07 / -0.08 / -0.27 / -0.14 / -0.24 | 1/18 (2.40) |
| 10 | S25F S28K E32S S33D N35T W56N | 0.39 / 0.27 / 0.13 / -0.05 / 0.12 / 0.30 | 2/18 (2.20) |
| 11 | K24S S25L S26M W56H T59L S62D | 0.57 / 0.42 / 0.18 / 0.52 / 0.32 / 0.34 | 0/18 |
| 12 | S25L S26Q V29W L30E W56H S62D | 0.29 / 0.59 / 0.36 / 0.44 / 0.23 / 0.38 | 3/18 (2.78) |
| 13 | Q27I V29Y Y31I W56E | -0.24 / -0.24 / -0.29 / -0.42 / -0.18 / -0.30 | 0/18 |
| 14 | Q27P S28V R34L W56N E61M | 1.36 / 0.45 / 0.56 / 0.33 / 0.51 / 0.51 | 1/18 (3.48) |
| 15 | S25L S26R V29T K36P T59V | 0.67 / 0.42 / 0.44 / 0.38 / 0.65 / 0.44 | 0/18 |
| 16 | S25F W56N S62T | 0.15 / 0.24 / 0.41 / 0.38 / 0.19 / 0.50 | 1/18 (1.96) |
| 17 | S25L S26Q S28L V29E W56S S62E | -0.28 / -0.05 / 0.09 / -0.23 / -0.25 / -0.20 | 1/18 (1.99) |
| 18 | S25F R34T N35T K36V W56N | 0.60 / 1.51 / 2.31 / 1.11 / 0.78 / 0.60 | 0/18 |
| 19 | S25E Y31P S33W R34G W56D | 0.12 / -0.17 / -0.13 / -0.14 / -0.08 / 0.13 | 0/18 |
| 20 | S25F S28V V29Y W56G | -0.17 / -0.26 / -0.44 / -0.17 / -0.21 / -0.18 | 3/18 (2.46) |
| 21 | K24H S25L Q27P L30E W56N | 0.20 / -0.04 / -0.51 / 0.01 / -0.24 / -0.32 | 0/18 |
| 22 | K24Q V29E W56G P101T | -0.69 / -0.62 / -0.25 / -0.26 / -0.74 / 0.11 | 0/18 |
| 23 | L30T Y31F K36C W56D | 0.55 / 0.48 / 0.24 / 0.08 / 0.14 / 0.27 | 2/18 (2.39) |
| 24 | S25L S26Q S38N W56N S62D | -0.13 / 0.12 / 0.37 / -0.14 / -0.28 / 0.53 | 0/18 |
| 25 | Q27I V29Y Y31E W56S | 0.39 / 0.29 / 0.34 / 0.17 / 0.04 / 0.40 | 2/18 (2.16) |
| 26 | S25L S26P W56E S62D Q96S | -0.01 / -0.04 / -0.10 / -0.12 / -0.23 / 0.05 | 2/18 (4.11) |
| 27 | S25V S26Q V29T | n.d. / n.d. / 1.39 / 1.32 / n.d. / n.d. | 0/18 |
| 28 | S25Q W56D S62D S103D | -0.21 / 0.09 / -0.27 / -0.33 / -0.22 / 0.09 | 1/18 (2.70) |
| 29 | V29W S38N W56G T59S | -0.12 / 0.16 / 0.58 / 1.06 / 0.16 / 3.01 | 0/18 |
| 30 | S25F S26E S28K L30D S33H N35T W56N | 0.54 / 0.09 / 0.20 / 0.23 / 0.54 / 0.33 | 3/18 (4.08) |
| 31 | Q27I V29E Y31G W56E | 0.51 / 0.50 / 0.14 / 0.68 / 0.11 / 0.22 | 2/18 (2.23) |
| 32 | V29Q W56G T59Q P101T | n.d. / n.d. / 2.49 / n.d. / n.d. / n.d. | 0/18 |
| 33 | S25L S26V Q27N V29T N35Q W56M | 2.58 / 2.10 / 2.71 / n.d. / 2.98 / n.d. | 1/18 (2.78) |
| 34 | S25L S26Q V29T W56S S62E | 0.08 / 0.25 / -0.23 / -0.10 / 0.27 / -0.06 | 1/18 (2.36) |

The opening 2 entries, copied out:

| changes | log10 Kd (nM) by replicate | control signals |
|---|---|---|
| S25F S38G W56N | 0.42 / 0.35 / 0.32 / -0.09 / 0.29 / 0.56 | 0/18 |
| S28L L30D Y31F W56D | 0.88 / 0.77 / 0.76 / 0.70 / 0.65 / 0.85 | 1/18 (2.78) |

Data: MIT Lincoln Laboratory AlphaSeq set, Li et al. 2023, doi:10.1038/s41467-023-39022-2, as distributed in FLAb.